Test results as given in EP4840874A1, “NOVEL PEPTIDE HAVING ACTIVITIES OF INHIBITING MUSCLE LOSS AND PROMOTING MUSCLE GROWTH, AND USES THEREOF” (dated 2026).

Columns and labels:
C2C12 myoblasts [1] = assay: Myotube synthesis capacity (microscopy, myotube thickness); conditions: 5 or 50 µM, 3 days after differentiation induction; peptide concentration-dependent
Experimental: To analyze the effect of the peptide prepared in Preparation Example 1 on myotube synthesis capacity in myoblasts, the thickness of the myotubes was compared by observing differentiated myoblasts under a microscope.
C2C12 cells (mouse myoblast line) were cultured in DMEM medium containing 1% P/S and 2% BCS. When cell confluency reached approximately 80%, cells were seeded into 6-well culture plates at a density of 5 x 10^5 cells/well with 2 ml aliquots. Subsequently, when cell confluency reached 100%, the medium was replaced with differentiation medium (1% P/S, 2% horse serum), and the peptide of SEQ ID NO: 1 was added at a concentration of 5 µM or 50 µM. Afterwards, the differentiation medium and SEQ ID NO: 1 peptide were replaced every two days, and images were taken with an optical microscope (FLEXACAM C1, Leica, Germany) 3 days after differentiation induction to compare the thickness of the myotubes.

HepG2 hepatocytes = assay: Fat synthesis-related protein expression in oleic acid-treated hepatocytes (Western blot); conditions: 500 µM oleic acid, 5 or 50 µM peptide, 48 hours
Experimental: To determine the effect of the peptide prepared in Preparation Example 1 on the expression of proteins related to fat synthesis, the expression levels of fat synthesis-related protein markers in hepatocytes were evaluated through Western blot analysis.
HepG2 cells (human hepatocyte line) were cultured in DMEM medium containing 1% P/S and 10% FBS. When cell confluency reached approximately 70 to 80%, cells were seeded into 12-well culture plates at a density of 1 x 10^5 cells/well by 1 ml. Subsequently, when cell confluency in the 12-well culture plates reached approximately 70 to 80%, the medium was replaced with serum-free DMEM medium. After 4 hours, the medium was replaced with serum-free DMEM (1% BSA) supplemented with 500 µM oleic acid (Sigma, USA), and the peptide of SEQ ID NO: 1 was treated at a concentration of 5 µM or 50 µM and incubated for 48 hours. After incubation, lysis buffer was added to lyse the cell, which was then centrifuged at 4°C and 12,000 rpm for 30 minutes to obtain the protein, which was quantified using a BCA kit. SDS-PAGE was performed on the protein, and the protein was electrotransferred onto a membrane. After blocking the protein-electrophoresed membrane with 5% skim milk, the anti-SREBP1 primary antibody (Abcam, UK) was reacted with the anti-β-actin primary antibody (Santa Cruz, USA) as a loading control overnight at 4°C. […]

C2C12 myoblasts [2] = assay: Muscle protein synthesis-related gene expression (RT-PCR); conditions: 5 or 50 µM, 3 days differentiation
Experimental: To determine the effect of the peptide prepared in Preparation Example 1 on the expression of genes related to muscle protein synthesis, the expression levels of signaling gene markers related to muscle protein synthesis in myoblasts were evaluated through RT-PCR analysis.
C2C12 cells (mouse myoblast line) were cultured in DMEM medium containing 1% P/S and 2% BCS. When cell confluency reached approximately 70 to 80%, cells were seeded into 6-well culture plates at a density of 5 x 10^5 cells/well with 2 ml aliquots. Subsequently, when cell confluency reached 100%, the medium was replaced with differentiation medium (1% P/S, 2% horse serum), and the peptide of SEQ ID NO: 1 was added at a concentration of 5 µM or 50 µM. Subsequently, the differentiation medium and peptide of SEQ ID NO: 1 were replaced every two days, and cells were harvested three days after the first replacement to extract RNA using Trizol (Thermo Fisher Scientific, USA). DNA complementary to the extracted RNA was obtained using TOPScript™ RT DryMIX (enzynomics, Korea), and then polymerase chain reaction (PCR) was performed on signaling genes related to muscle protein synthesis using TOPsimple™ DryMIX-nTaq (enzynomics, Korea). The mRNA expression levels of the markers were then compared under each sample treatment condition by running the samples on a 1.5% agarose gel. The primer sequences of the genes used in the experiment and the primer sequence of the GAPDH gene as a control are shown in Table 3.

## CC(C)[C@H](NC(=O)[C@@H](NC(=O)[C@@H](N)CC(=O)O)[C@@H](C)O)C(=O)N[C@@H](CCC(=O)O)C(=O)N[C@@H](CC(N)=O)C(=O)O
C2C12 myoblasts [1]
  thickness of the myotubes: fused with surrounding myotubes to form thicker myotubes
HepG2 hepatocytes
  protein expression level of SREBP1 increased by oleic acid: reduced
C2C12 myoblasts [2]
  mRNA expression level of AKT: significantly increased in a peptide concentration-dependent manner
  mRNA expression level of IGF-1: significantly increased in a peptide concentration-dependent manner
  mRNA expression level of P70S6K: significantly increased in a peptide concentration-dependent manner
  mRNA expression level of SIRT1: significantly increased in a peptide concentration-dependent manner
  mRNA expression level of mTOR: significantly increased in a peptide concentration-dependent manner
